Source: paper PMC9646673, “A Novel, Orally Bioavailable, Small-Molecule Inhibitor of PCSK9 With Significant Cholesterol-Lowering Properties In Vivo” (Journal of Lipid Research, 2022)

Assays:
APOE∗3-Leiden.CETP mice [1] = experiment: Second efficacy study: body weight, food intake, plasma ALT and AST; type: in vivo, mouse; set-up: unit not given here; conditions: NYX-PCSK9i 50 mg/kg BID PO, atorvastatin 4.9 mg/kg/day
Description: Animal experiments were approved by the governmental central committee on animal experiments (AVD5010020172064) and TNO’s animal welfare body (TNO-471 and TNO-482). Female APOE∗3-Leiden.CETP transgenic mice (11–16 weeks of age) were bred at the animal facility of TNO-InnoSer (Leiden, The Netherlands). Female animals were used in this study as they are more responsive to dietary cholesterol and fat than males and therefore typically develop atherosclerosis more rapidly than male APOE∗3-Leiden and APOE∗3-Leiden.CETP mice on cholesterol-containing diets ([33], [34]). […] Body weight, food intake, and clinical signs of behavior were monitored throughout the studies. […]
(§1) In both studies, blood samples were collected at weekly intervals via tail vein sampling after fasting the mice for 4 h. […] Total plasma cholesterol levels were determined using a Cholesterol CHOD-PAP kit according to the manufacturer’s instructions. Plasma HDL-C levels were determined by first precipitating apoB-containing lipids using PEG 6000/glycine and then utilizing the Cholesterol CHOD-PAP kit ([35]). Non-HDL-C levels were determined by subtracting HDL-C levels from total cholesterol levels ([32]). Group-pooled lipoprotein profiles were determined by FPLC analysis using an AKTApurifier 10 FPLC system (GE Healthcare, Chicago, IL). […]

APOE∗3-Leiden.CETP mice [2] = experiment: First efficacy study: body weight, food intake, plasma AST and ALT; type: in vivo, mouse; set-up: unit not given here
Description: Animal experiments were approved by the governmental central committee on animal experiments (AVD5010020172064) and TNO’s animal welfare body (TNO-471 and TNO-482). Female APOE∗3-Leiden.CETP transgenic mice (11–16 weeks of age) were bred at the animal facility of TNO-InnoSer (Leiden, The Netherlands). Female animals were used in this study as they are more responsive to dietary cholesterol and fat than males and therefore typically develop atherosclerosis more rapidly than male APOE∗3-Leiden and APOE∗3-Leiden.CETP mice on cholesterol-containing diets ([33], [34]). Although measurements of atherosclerosis were not included as part of the present study, females were used with the prospect in mind that atherosclerosis studies will follow. The mice were housed under standard conditions that included 12 h light-dark cycles and access to a WTD and sterilized tap water ad libitum. Body weight, food intake, and clinical signs of behavior were monitored throughout the studies. […]
In the first efficacy study, mice were divided into three groups of eight to determine whether there was a dose-dependent cholesterol-lowering effect with NYX-PCSK9i treatment. […] Throughout the in-life phase of the study, body weight and food intake (per cage) were measured at regular predetermined intervals while blood samples were collected every 7 days. […] Throughout the study, plasma cholesterol, triglycerides, HDL-C, lipoprotein profiles, PCSK9 expression levels, aspartate transaminase levels (AST), and alanine transaminase levels (ALT) were measured as described below.
as §1, with “([32]).” for “([32]). Group-pooled lipoprotein profiles were determined by FPLC analysis using an AKTApurifier 10 FPLC system (GE Healthcare, Chicago, IL).”

## Cc1cn(-c2cc(CN3CCC[C@H](N)C3)cc(NC(=O)c3cc(-c4ccccc4)ccn3)c2)cn1 [NYX-PCSK9i]
APOE∗3-Leiden.CETP mice [1]; day 7
  Body weight (mean ± SD): 22.8 ± 2.0
APOE∗3-Leiden.CETP mice [1]; day 35
  Body weight (mean ± SD): 22.1 ± 1.9
APOE∗3-Leiden.CETP mice [2]; 30 mg/kg BID PO, day 14
  Body weight (mean ± SD): 22.3 ± 1.7
APOE∗3-Leiden.CETP mice [2]; 30 mg/kg BID PO, day 21
  Body weight (mean ± SD): 22.2 ± 1.2
APOE∗3-Leiden.CETP mice [2]; 50 mg/kg BID PO, day 0 (baseline)
  Body weight (mean ± SD): 22.2 ± 1.6
